{
  "sequences": {"note": "Protein sequences, listed by entry. Tags and fused reporters are not part of them. Lines headed by an entry give the natural chain unless they say otherwise; changes in a name come on top. Residues count along the entry.", "UniProt O75521, 39-394": "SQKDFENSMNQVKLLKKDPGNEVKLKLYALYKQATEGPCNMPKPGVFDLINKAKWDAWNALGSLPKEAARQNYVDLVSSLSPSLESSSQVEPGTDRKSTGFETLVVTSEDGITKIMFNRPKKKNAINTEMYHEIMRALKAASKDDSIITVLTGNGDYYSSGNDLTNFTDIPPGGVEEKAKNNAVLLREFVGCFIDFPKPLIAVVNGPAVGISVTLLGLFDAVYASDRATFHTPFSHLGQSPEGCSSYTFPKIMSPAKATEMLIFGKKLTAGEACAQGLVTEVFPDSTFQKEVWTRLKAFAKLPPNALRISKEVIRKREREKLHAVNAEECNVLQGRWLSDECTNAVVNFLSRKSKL", "UniProt P21127": "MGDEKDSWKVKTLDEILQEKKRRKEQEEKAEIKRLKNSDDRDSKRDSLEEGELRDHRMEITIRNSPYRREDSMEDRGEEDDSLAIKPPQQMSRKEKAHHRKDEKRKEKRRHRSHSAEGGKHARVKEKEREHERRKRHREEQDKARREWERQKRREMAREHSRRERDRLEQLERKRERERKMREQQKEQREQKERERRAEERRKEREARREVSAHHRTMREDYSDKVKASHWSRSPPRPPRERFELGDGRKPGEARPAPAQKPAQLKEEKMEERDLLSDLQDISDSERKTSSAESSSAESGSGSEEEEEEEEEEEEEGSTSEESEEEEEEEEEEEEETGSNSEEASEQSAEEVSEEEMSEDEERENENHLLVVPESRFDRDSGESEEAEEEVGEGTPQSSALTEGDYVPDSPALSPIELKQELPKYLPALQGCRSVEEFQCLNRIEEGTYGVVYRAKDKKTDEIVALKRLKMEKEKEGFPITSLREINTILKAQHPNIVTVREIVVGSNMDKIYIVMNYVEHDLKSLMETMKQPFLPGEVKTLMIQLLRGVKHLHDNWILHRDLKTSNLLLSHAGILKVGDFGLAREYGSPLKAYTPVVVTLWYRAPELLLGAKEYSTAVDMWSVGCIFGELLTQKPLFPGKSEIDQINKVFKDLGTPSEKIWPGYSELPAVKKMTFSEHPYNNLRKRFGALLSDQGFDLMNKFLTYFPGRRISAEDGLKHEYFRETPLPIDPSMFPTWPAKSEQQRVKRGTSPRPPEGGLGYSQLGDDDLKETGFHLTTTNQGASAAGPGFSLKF", "UniProt P27448": "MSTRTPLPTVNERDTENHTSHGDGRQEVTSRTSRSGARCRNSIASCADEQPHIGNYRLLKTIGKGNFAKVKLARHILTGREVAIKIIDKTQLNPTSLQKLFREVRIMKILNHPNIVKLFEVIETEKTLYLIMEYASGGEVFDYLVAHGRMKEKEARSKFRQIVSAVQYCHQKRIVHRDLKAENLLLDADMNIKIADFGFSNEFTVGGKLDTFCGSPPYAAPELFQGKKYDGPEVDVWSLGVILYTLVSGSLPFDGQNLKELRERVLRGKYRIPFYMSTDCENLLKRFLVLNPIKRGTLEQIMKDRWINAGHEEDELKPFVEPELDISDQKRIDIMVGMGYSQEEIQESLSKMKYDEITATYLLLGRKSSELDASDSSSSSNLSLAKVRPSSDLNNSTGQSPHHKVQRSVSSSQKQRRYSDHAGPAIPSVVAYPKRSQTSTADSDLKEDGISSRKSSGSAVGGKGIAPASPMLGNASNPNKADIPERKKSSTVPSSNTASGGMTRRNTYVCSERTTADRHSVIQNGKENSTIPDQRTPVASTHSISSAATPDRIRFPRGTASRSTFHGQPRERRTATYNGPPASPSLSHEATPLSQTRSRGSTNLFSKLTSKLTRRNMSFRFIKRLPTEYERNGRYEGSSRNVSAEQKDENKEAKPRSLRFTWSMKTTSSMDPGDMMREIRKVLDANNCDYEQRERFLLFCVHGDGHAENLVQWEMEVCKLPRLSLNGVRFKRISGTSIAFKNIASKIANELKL", "UniProt P27707": "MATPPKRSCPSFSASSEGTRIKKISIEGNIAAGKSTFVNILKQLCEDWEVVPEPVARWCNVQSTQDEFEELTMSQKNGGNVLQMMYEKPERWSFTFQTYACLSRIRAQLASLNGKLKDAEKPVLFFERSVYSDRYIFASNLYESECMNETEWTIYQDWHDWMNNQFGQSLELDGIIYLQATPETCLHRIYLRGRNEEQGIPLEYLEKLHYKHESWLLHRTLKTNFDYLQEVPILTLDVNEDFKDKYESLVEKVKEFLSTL", "UniProt P51617, whole entry": "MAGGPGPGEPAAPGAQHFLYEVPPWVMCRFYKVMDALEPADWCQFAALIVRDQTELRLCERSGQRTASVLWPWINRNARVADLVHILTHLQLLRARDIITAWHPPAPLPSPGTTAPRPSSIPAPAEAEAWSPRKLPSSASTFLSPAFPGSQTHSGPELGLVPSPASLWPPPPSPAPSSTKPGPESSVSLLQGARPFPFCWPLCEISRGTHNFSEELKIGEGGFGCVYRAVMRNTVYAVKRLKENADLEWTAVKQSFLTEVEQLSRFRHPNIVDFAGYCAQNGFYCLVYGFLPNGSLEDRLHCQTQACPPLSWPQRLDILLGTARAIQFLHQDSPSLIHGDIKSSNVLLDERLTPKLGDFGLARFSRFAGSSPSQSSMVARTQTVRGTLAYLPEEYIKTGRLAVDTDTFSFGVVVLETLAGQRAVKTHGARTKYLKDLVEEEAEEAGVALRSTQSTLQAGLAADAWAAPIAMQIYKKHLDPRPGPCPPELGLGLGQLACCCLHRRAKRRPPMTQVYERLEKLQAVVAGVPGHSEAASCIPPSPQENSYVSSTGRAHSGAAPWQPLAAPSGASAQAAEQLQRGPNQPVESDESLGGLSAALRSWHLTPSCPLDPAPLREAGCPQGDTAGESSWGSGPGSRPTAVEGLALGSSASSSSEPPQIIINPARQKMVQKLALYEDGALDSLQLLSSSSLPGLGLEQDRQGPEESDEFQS", "UniProt P53667": "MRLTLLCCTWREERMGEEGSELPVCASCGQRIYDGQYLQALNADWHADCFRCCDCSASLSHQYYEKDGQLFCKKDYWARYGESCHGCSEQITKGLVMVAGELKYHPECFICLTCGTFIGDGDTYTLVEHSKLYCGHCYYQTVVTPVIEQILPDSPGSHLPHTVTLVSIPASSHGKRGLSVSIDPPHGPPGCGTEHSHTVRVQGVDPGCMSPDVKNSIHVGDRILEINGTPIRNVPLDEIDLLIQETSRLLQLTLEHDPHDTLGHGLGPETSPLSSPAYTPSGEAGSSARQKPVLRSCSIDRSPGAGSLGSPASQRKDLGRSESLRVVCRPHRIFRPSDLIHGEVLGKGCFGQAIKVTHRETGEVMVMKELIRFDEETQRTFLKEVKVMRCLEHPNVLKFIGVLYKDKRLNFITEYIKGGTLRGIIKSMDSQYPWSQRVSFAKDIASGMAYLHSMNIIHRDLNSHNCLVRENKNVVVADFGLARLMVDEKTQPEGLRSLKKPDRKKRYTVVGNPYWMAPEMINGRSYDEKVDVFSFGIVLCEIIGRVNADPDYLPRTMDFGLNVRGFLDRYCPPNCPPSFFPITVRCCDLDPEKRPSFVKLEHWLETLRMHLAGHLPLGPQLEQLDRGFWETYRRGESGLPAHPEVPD", "UniProt Q05397, whole entry": "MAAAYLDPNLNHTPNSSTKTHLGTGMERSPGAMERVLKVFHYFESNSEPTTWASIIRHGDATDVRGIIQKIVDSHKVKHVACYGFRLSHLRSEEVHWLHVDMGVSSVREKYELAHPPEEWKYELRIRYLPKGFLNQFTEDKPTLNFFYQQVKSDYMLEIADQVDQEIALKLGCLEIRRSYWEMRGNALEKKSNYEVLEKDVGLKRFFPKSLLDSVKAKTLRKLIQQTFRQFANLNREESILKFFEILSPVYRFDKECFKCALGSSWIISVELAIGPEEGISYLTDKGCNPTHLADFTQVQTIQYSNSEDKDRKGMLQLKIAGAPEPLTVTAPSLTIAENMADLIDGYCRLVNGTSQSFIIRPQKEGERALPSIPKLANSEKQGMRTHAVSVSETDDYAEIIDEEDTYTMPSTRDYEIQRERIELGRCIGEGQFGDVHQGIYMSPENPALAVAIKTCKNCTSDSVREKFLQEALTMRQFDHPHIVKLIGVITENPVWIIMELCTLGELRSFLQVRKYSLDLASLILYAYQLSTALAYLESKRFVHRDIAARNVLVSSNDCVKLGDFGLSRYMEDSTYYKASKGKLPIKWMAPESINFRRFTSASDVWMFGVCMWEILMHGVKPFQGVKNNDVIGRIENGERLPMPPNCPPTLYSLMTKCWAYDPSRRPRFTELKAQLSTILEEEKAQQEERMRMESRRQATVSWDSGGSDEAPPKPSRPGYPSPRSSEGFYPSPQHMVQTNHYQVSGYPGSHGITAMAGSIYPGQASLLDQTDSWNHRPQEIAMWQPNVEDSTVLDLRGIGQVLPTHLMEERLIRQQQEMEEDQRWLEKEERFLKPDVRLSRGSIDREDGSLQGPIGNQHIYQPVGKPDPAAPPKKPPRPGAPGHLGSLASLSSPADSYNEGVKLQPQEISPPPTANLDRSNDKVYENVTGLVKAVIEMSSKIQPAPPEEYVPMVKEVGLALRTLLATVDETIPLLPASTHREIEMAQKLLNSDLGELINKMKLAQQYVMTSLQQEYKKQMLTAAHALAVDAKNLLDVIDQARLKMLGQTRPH", "UniProt Q14680": "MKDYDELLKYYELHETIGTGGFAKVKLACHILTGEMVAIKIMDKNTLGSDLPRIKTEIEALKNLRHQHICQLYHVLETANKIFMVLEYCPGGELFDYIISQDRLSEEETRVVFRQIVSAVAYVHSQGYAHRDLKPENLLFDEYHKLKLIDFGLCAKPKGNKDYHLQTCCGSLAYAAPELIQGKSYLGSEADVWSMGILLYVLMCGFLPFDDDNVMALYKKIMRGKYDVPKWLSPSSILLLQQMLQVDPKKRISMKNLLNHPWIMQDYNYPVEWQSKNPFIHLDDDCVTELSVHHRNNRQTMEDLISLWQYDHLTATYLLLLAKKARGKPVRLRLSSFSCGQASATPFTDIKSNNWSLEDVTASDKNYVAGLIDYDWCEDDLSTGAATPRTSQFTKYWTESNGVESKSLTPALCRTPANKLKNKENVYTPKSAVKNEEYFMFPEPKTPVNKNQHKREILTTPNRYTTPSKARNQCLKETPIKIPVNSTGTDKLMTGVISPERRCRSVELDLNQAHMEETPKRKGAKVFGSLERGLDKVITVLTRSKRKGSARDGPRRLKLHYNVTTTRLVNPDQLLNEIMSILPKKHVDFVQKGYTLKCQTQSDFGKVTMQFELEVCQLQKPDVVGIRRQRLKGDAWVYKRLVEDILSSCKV", "UniProt Q99755": "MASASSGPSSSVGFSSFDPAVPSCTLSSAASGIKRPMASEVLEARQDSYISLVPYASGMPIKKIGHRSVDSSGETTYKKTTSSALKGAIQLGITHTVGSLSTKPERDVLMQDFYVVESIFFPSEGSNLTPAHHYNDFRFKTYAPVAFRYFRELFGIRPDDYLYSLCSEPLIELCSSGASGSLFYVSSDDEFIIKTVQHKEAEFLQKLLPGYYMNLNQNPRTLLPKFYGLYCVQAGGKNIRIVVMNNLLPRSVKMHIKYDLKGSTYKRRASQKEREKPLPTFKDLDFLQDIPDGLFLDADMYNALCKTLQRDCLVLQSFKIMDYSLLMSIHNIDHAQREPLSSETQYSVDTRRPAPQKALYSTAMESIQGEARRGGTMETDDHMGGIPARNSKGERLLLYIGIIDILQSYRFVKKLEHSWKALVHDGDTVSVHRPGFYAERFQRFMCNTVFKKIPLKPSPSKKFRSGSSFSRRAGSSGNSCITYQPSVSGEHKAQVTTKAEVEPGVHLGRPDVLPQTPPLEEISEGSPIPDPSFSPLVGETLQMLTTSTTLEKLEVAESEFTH"},
  "source": "patent US8959984B2",
  "about": "“Proteome-wide quantification of small molecule binding to cellular target proteins” (priority 2007, dated 2015)",
  "experiment_in_all_cases": "Ki determination for immobilized VI16742: two consecutive incubations, control beads, ligand concentration and incubation time controls (Tables 7, 8)",
  "assay_type_in_all_cases": "binding",
  "key": {"[1]": {"biological_target": "cellular target proteins in HeLa cell lysate (Homo sapiens, UniProt O75521)", "details": "Ki (VI16742), PECI IPI00639841", "text": "(§1) In an alternative implementation of the chemical proteomic approach according to the invention, the broadly-selective pyrido[2,3-d]pyrimidine-based kinase inhibitor VI16742 has been used for affinity capture (FIG. 10a). […] As shown by gene ontology analysis, the corresponding molecular functions were highly over-represented in proteins specifically retained by the inhibitor resin (FIG. 10b).\n(§2) Cysteine carbamidomethylation was set as a fixed modification and N-acetyl protein and oxidized methionine were allowed as variable modifications. Spectra that were determined to result from heavy labeled peptides in the pre-search detection of SILAC partners by MaxQuant were searched with the fixed modifications Lys^4, Lys^8, Arg^6 and Arg^10, whereas MS/MS spectra for which no SILAC state could be assigned before database searching were searched with Lys^4, Lys^8, Arg^6 and Arg^10 as variable modifications. The mass tolerance was set to 5 ppm for monoisotopic precursor ions and to 0.5 Da for MS/MS peaks. The minimum peptide length was set to 6 amino acids and up to three missed cleavages and three isotopically labeled amino acids were permitted per peptide. The accepted false discovery rate (FDR) was 1% for the proteins and peptides. The cut-off for the posterior error probability (PEP) of peptides was set to 10%. Peptide PEPs were determined by generating Mascot score and peptide-length-dependent histograms for both the forward and the reverse hits and then deriving the probability of a false identification for a given top-scoring peptide using Bayes' theorem. The PEPs of peptides belonging to the same proteins were then multiplied. Each peptide sequence was considered only once with the lowest PEP determined in case of multiple sequencing of the same isotopic pattern or of peptide species with different SILAC, charge or modification states. Proteins were then sorted according to their products of their peptide PEPs and included until a FDR of 1% was reached according to the fraction of reverse proteins contained in the protein list. In addition to the FDR threshold applied for protein identification, proteins were only included when they were identified with at least two peptides (of which one was required to be unique for the protein) and quantified if at least on quantifiable SILAC pair was associated with them. Outliers were not removed as protein ratios were calculated as the median instead of the average of all peptide ratios. For peptides shared among different identified proteins, SILAC ratios were only considered for the ratio of the protein identified with the highest number of unique peptides. Protein ratios for the different in vitro association experiments were corrected for the initial SILAC pooling ratio, which was determined from the median of protein ratios in pooled SILAC-encoded cell extracts."}, "[2]": {"biological_target": "T1, cellular target proteins in HeLa cell lysate (Homo sapiens, UniProt P16083)", "T1 sequence (P16083 1-231)": "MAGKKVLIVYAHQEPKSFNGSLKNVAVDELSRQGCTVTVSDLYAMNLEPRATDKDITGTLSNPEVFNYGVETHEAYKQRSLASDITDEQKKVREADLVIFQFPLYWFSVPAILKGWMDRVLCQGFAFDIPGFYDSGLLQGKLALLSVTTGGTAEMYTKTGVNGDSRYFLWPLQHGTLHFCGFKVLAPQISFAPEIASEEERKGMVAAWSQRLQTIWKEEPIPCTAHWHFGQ", "details": "Ki (VI16742), NQO2 IPI00219129", "text": "as §1, §2"}, "[3]": {"biological_target": "cellular target proteins in HeLa cell lysate (Homo sapiens, UniProt P21127)", "details": "Ki (VI16742), PITSLRE (CDC2L1) IPI00215999", "text": "as §1, §2"}, "[4]": {"biological_target": "cellular target proteins in HeLa cell lysate (Homo sapiens, UniProt P27448)", "details": "Ki (VI16742), MARK3 IPI00220508", "text": "as §1, §2"}, "[5]": {"biological_target": "cellular target proteins in HeLa cell lysate (Homo sapiens, UniProt P27707)", "details": "Ki (VI16742), DCK IPI00020454", "text": "as §1, §2"}, "[6]": {"biological_target": "cellular target proteins in HeLa cell lysate (Homo sapiens, UniProt P51617)", "details": "Ki (VI16742), IRAK1 IPI00293652", "text": "as §1, §2"}, "[7]": {"biological_target": "cellular target proteins in HeLa cell lysate (Homo sapiens, UniProt P53667)", "details": "Ki (VI16742), LIMK1 IPI00291702", "text": "as §1, §2"}, "[8]": {"biological_target": "cellular target proteins in HeLa cell lysate (Homo sapiens, UniProt Q05397)", "details": "Ki (VI16742), FAK IPI00413961", "text": "as §1, §2"}, "[9]": {"biological_target": "T2, cellular target proteins in HeLa cell lysate (Homo sapiens, UniProt Q13043)", "T2 sequence (Q13043 1-487)": "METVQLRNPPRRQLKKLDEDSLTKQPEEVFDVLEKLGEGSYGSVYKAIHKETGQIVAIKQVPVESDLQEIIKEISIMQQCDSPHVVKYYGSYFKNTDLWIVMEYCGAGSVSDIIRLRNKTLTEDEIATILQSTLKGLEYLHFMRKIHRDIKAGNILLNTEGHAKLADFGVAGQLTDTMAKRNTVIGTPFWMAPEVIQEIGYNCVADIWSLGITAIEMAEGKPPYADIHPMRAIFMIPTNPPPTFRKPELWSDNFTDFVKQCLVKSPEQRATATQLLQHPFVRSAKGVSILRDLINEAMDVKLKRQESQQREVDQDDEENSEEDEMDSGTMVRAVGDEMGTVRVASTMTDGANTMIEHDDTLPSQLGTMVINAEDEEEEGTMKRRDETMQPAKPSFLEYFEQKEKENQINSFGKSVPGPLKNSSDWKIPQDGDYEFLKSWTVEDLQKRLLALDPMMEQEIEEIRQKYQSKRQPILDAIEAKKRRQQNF", "details": "Ki (VI16742), MST1 (STK4) IPI00011488", "text": "as §1, §2"}, "[10]": {"biological_target": "cellular target proteins in HeLa cell lysate (Homo sapiens, UniProt Q14680)", "details": "Ki (VI16742), MELK IPI00006471", "text": "as §1, §2"}, "[11]": {"biological_target": "cellular target proteins in HeLa cell lysate (Homo sapiens, UniProt Q99755)", "details": "Ki (VI16742), PIP5K1A IPI00022150", "text": "as §1, §2"}},
  "data": [
    {"smiles": "CC(C)n1c(=O)ccc2cnc(Nc3ccc(OCCN)cc3)nc21", "note": "[V16742]", "values": [
      {"measurement": "Ki", "setting": "[1]", "value": 10.4, "unit": "µM"},
      {"measurement": "Ki", "setting": "[2]", "value": 4.13, "unit": "µM"},
      {"measurement": "Ki", "setting": "[3]", "value": 68.4, "unit": "µM"},
      {"measurement": "Ki", "setting": "[4]", "value": 7.71, "unit": "µM"},
      {"measurement": "Ki", "setting": "[5]", "value": 57.8, "unit": "µM"},
      {"measurement": "Ki", "setting": "[6]", "value": 10.9, "unit": "µM"},
      {"measurement": "Ki", "setting": "[7]", "value": 11, "unit": "µM"},
      {"measurement": "Ki", "setting": "[8]", "value": 21, "unit": "µM"},
      {"measurement": "Ki", "setting": "[9]", "value": 28.9, "unit": "µM"},
      {"measurement": "Ki", "setting": "[10]", "value": 8.73, "unit": "µM"},
      {"measurement": "Ki", "setting": "[11]", "value": 55.8, "unit": "µM"}
    ]}
  ]
}
